Reference: US20170232043A1, “BACTERIA ENGINEERED TO TREAT DISORDERS INVOLVING THE CATABOLISM OF A BRANCHED CHAIN AMINO ACID” (priority 2015, published 2017)

Settings: 0.1 mg/g subcutaneously
[1] = as early as 30 min after injection

^13C6-Leu in plasma [1]: present | ^13C6-Leu in small intestine effluent [1]: present | ^13C6-Leu in cecum (up to 2 h): undetectable | ^13C6-Leu in large intestine (up to 2 h): undetectable
Substance: heavy isotope-labeled leucine (^13C6) [^13C6-Leu]
